# Test results as given in PubChem BioAssay AID1671194 (National Center for Advancing Translational Sciences (NCATS), 2021).
# Only a part is listed here, and it is no random draw. Results filed as inconclusive are left out. Calls of active or inactive are those of the source. Calls follow the shape of the dose curve; as a rule, active = well fitted inhibition curve with a large enough effect; inconclusive = small, poorly fitted or top-dose-only effect; inactive = no such curve, though single readings can be large or run the other way.
# Assay: Primary qHTS assay for inhibitors of alpha-synuclein gene (SNCA) expression; also: nearly all actives have a fitted effect of over 45% in size
# Conditions: HEK-293 SNCA-luciferase knock-in, luminescence, 24 h; at 25.6 µM (top of the series) unless noted
# Excerpt: Assay Submitter (PI): Daniel R. Scoles Ph.D.
# Department of Neurology, University of Utah, Salt Lake City, Utah
# Accumulation of alpha-synuclein is a main underlying pathological feature of Parkinson's disease (PD) and alpha-synucleinopathies, for which lowering expression of the alpha-synuclein gene (SNCA) is a potential therapeutic avenue. Using a cell-based luciferase reporter of SNCA expression we performed a quantitative high throughput screen (qHTS) of 155,885 compounds in dose response. The screening assay was generated using genome editing to insert the luciferase gene downstream and in frame of the SNCA gene in HEK-293 cells (1). A viability counterscreen using GF-AFC was used to eliminate cytotoxic and false positive compounds. After in silico analysis (clustering, removal of frequent hitter nuisance chemotypes), inhibitor compounds from the primary screen were selected for follow up and re-tested at 11-doses in the SNCA-luc cells (luciferase and GF-AFC confirmation), and in CMV-luc expressing cell line to flag general transcriptional repressors.
# Described herein are the results of the primary screen for SNCA inhibitors; decrease in luciferase signal (inhibition of the SNCA gene expression) is the desired output for this assay.
# 1. Dansithong, W., Paul, S., Scoles, D. R., Pulst, S. M., and Huynh, D. P. (2015) Generation of SNCA Cell Models Using Zinc Finger Nuclease (ZFN) Technology for Efficient High-Throughput Drug Screening. PLoS ONE 10, e0136930.
# SEQUENCE No. (e.g., 1, 2, 3, etc.); […] (e.g., Cells, Incubation, Reagent, etc.); VALUE; DESCRIPTION
# 1; Cells; 4 uL; Dispense 1500 HEK-293-SNCA-luc cells/well into Greiner 1536-well white / solid bottom tissue culture treated plate. The plate was covered with metal lids with gas-exchange holes.
# 2; Incubate; 24 hours; Incubate at 37C, 5% CO2, 95% RH.
# 3; Compounds; 23 nL; Compounds and controls were transferred via a Kalypsys Pin Tool (Wako USA) equipped with a 1536-slotted pin array. The plate was covered with metal lids with gas-exchange holes.
# 4; Incubate; 24 hours; Incubate at 37C, 5% CO2, 95% RH.
# 5; Dispense; 1 uL; Dispense Gly-Phe-7-amino-4-trifluoromethylcoumarin (GF-AFC, prepared at 125 uM in PBS) was added. The plate was covered with metal lids with gas-exchange holes.
# 6; Incubate; 30 min; Incubate at 37C, 5% CO2.
# 7; Detector; Fluorescence; Measure fluorescence with ViewLux microplate reader (PerkinElmer) equipped with 405/10 excitation and 540/25 emission filters.
# 8; Dispense; 3 uL; Dispense ONE-Glo ([…]) lucifase detection reagent was added to each well. Plates were covered with metal lids with gas-exchange holes.
# 9; Incubate; 15 min; Incubate at room temperature.
# 10; Detector; Luminescence; Measure luminescence with ViewLux microplate reader (PerkinElmer) equipped with clear filters.
# NOTES (numbers refer to sequence above)
# 1; HEK-293-SNCA-luc were cultured and suspended in phenol-red free DMEM (4.5 g/L glucose, 25 mM HEPES, cat #21063 (Thermo)).
# 3; Compounds were added to the assay plate in an 11-point intra plate dose response, 1:3 titration in DMSO with a final concentration range of […]. Vehicle-only plates, with DMSO being pin-transferred to every well, were inserted at the beginning of screening runs to confirm expected assay performance. Activity was normalized to wells containing medium only (-100% activity, full inhibition) and SNCA-luc cells treated with DMSO vehicle control (0% activity), contained on the same plate as test samples.
# 10; Signals were analyzed, and dose-response curves were fit using the Hill equation. Compounds in curve classes -1.1, -1.2, -2.1, -2.2 in the SNCA-luc assay were considered active. Compounds were eliminated from further consideration if also active (curve class -1.1, -1.2, -1.3, -1.4, -2.1, -2.2, -2.3, -2.4) in the GF-AFC cytotoxicity assay.
row,Structure (SMILES),"activity change, negative = inhibition"
1,Cc1cccc([N+](=O)[O-])c1[N+](=O)[O-],inactive: 15.8%
2,CCOP(=O)(CC)Oc1ccc([N+](=O)[O-])cc1 (stereo unspecified),inactive: -23.8%
3,C/C1=C2N=C(/C=C3N=C(/C(C)=C4\[N-][C@@](C)([C@@H]5N=C1[C@](C)(CCC(=O)NC[C@@H](C)OP(=O)([O-])O[C@H]1[C@@H](O)[C@@H](n6cnc7cc(C)c(C)cc76)O[C@@H]1CO)[C@H]5CC(N)=O)[C@@](C)(CC(N)=O)[C@@H]4CCC(N)=O)[C@@](C)(CC(N)=O)[C@@H]\3CCC(N)=O)C(C)(C)[C@@H]/2CCC(N)=O.[C-]#N.[Co+3],inactive: -33.4%
4,OCCSCCO,inactive: -41.3%
5,CC1=C2[N-][C@@](C)([C@@H]3N=C(C(C)=C4N=C(C=C5N=C1[C@@](C)(CC(N)=O)[C@H]5CCC(N)=O)C(C)(C)[C@H]4CCC(N)=O)[C@](C)(CCC(=O)NC[C@@H](C)OP(=O)([O-])O[C@H]1[C@@H](O)[C@@H](n4cnc5cc(C)c(C)cc54)O[C@H]1CO)[C@H]3CC(N)=O)[C@@](C)(CC(N)=O)[C@@H]2CCC(N)=O.[C-]#N.[Co+3],inactive: -27.6%
6,O=[N+]([O-])c1cccc([N+](=O)[O-])c1,inactive: -25.6% [at 57.2 µM]
